From PubChem BioAssay AID859 (Vanderbilt High Throughput Screening Facility, 2007) come the findings set out here.

Protein sequences, listed by entry. Tags and fused reporters are not part of them. Lines headed by an entry give the natural chain unless they say otherwise; changes in a name come on top.
UniProt P08482: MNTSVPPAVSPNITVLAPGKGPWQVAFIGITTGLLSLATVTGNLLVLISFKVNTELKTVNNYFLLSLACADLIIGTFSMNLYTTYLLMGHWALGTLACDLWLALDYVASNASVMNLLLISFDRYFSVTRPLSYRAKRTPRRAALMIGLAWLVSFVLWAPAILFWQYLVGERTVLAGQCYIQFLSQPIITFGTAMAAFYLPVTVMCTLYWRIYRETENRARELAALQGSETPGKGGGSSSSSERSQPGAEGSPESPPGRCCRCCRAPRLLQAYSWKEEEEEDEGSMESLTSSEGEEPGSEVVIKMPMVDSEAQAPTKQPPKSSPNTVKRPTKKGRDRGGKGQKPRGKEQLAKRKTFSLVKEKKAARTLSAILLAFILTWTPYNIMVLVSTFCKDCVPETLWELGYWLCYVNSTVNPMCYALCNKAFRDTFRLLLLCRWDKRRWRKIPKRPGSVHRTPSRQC

This assay has as its target Muscarinic acetylcholine receptor M1 (Rattus norvegicus) (UniProt P08482). Description: rat M1 muscarinic receptor antagonist potency, dose response, cell-based, calcium fluorescence (AID 859). As to conditions: M1-expressing cells, antagonist mode vs EC80.

Broadly, the IC50 is the concentration needed to halve the response being measured. For the compound `Cc1ccc(OCC(=O)OC2CN3CCC2CC3)cc1` (stereo unspecified), the IC50 was 8.28 µM.
